# Data: paper PMC8753592, “Long-acting capsid inhibitor protects macaques from repeat SHIV challenges” (Nature, 2021)
# Tests used:
# [1] = Protocol: After a 24-h equilibration period at 37 °C, samples were quenched with 4 volumes of 90% (vol/vol) acetonitrile and 10% (vol/vol) methanol containing internal standard. Then, they were quantified using the AB Sciex API 4000 LC–MS/MS system (GenTech Scientific) with electrospray ionization in positive mode and multiple-reaction monitoring and were analysed using Analyst 1.6.1 software. The fold change value in 100% rhesus plasma was then calculated using the plasma/CCM ratio after correcting for the sample dilution factor and the percentage of free fraction in the matrix.
# [2] = test system: SHIV-SF162P3; experiment: Repeated escalating-dose rectal SHIV challenge study (plasma viraemia by gag RT-qPCR); type: in vivo, rhesus macaques of Indian origin; conditions: Cox proportional hazard model
# Protocol: For the challenge study, 24 outbred rhesus macaques of Indian origin were assigned to the three study groups with even sex and weight distributions. All animals were housed at Alpha Genesis (Yemassee, SC), and all procedures were conducted in compliance with all relevant local, state and federal regulations and were approved by the Alpha Genesis IACUC. […] The injection sites were monitored daily by veterinary staff for 3 days. Beginning in week 1, animals in all three groups were challenged by the intrarectal route with 1 ml of RPMI containing the specified dilution of a 3.62 × 10^3 TCID50 SHIV-SF162P3 stock. At each respective time point, the challenges were performed on the same day, using the same virus stock and inoculation method across the three groups. […]
# Protection against acquired infection was analysed using Cox proportional hazard regression models based on the exact partial likelihood for discrete time expressed in weeks, which explicitly accounts for the time-varying viral challenge dose in the model. The hazard ratios with 95% confidence intervals for per-exposure relative reductions in acquisition risk were calculated for the GS-CA1-treated groups, and the results were compared with those for the vehicle-treated control group. […]
smiles,measurement,setting,value
CC(C)(C#Cc1ccc(-c2ccc(Cl)c3c(NS(=O)(=O)C4CC4)nn(CC(F)F)c23)c([C@H](Cc2cc(F)cc(F)c2)NC(=O)Cn2nc(C(F)F)c3c2C(F)(F)[C@@H]2C[C@H]32)n1)S(C)(=O)=O [GS-CA1],Rhesus EQD plasma shift,[1]; extrapolated to 100% rhesus plasma vs CCM,15.8 fold
same,"Ratio, 10% Indian rhesus monkey plasma against CCM",[1]; individual experiments,1.82 and 1.31 and 1.59
same,"Mean (Ratio), 10% Indian rhesus monkey plasma against CCM",[1]; mean of three,1.58
same,Hazard ratio (95% CI),[2]; 150 mg/kg single s.c. vs vehicle,0.127 (0.03–0.51)
same,Hazard ratio (95% CI),[2]; 300 mg/kg single s.c. vs vehicle,0.033 (0.0059–0.188)

# “And” between values parts separate entries of the source, which are not always exact repeats. Identical values can stand only once.
